Test results reported in ChEMBL document CHEMBL1144605, “Discovery of an androgen receptor modulator pharmacophore based on 2-quinolinones” (Bioorg Med Chem Lett, 2007).

Experiments:
Homo sapiens [1] = species on record: Homo sapiens; assay: Selectivity for androgen receptor over mineralocorticoid receptor
Homo sapiens [2] = species on record: Homo sapiens; assay: Selectivity for androgen receptor over progesterone receptor
Homo sapiens [3] = species on record: Homo sapiens; assay: Selectivity for androgen receptor over glucocorticoid receptor
Homo sapiens [4] = species on record: Homo sapiens; assay: Selectivity for androgen receptor over estrogen receptor

## CCCc1cc2c(C(F)(F)F)cc(=O)[nH]c2cc1N
Homo sapiens [1]
  Selectivity ratio: > 100
Homo sapiens [2]
  Selectivity ratio: > 10
Homo sapiens [3]
  Selectivity ratio: > 100
Homo sapiens [4]
  Selectivity ratio: > 100

## CCN(CC(F)(F)F)c1ccc2c(C(F)(F)F)cc(=O)[nH]c2c1
Homo sapiens [1]
  Selectivity ratio: > 100
Homo sapiens [2]
  Selectivity ratio: > 10
Homo sapiens [3]
  Selectivity ratio: > 100
Homo sapiens [4]
  Selectivity ratio: > 100

## O=c1cc(C(F)(F)F)c2cc(NCC(F)(F)F)ccc2[nH]1
Homo sapiens [1]
  Selectivity ratio: > 100
Homo sapiens [2]
  Selectivity ratio: > 10
Homo sapiens [3]
  Selectivity ratio: > 100
Homo sapiens [4]
  Selectivity ratio: > 100

## CC(C)Nc1ccc2c(C(F)(F)F)cc(=O)[nH]c2c1
Homo sapiens [1]
  Selectivity ratio: > 100
Homo sapiens [2]
  Selectivity ratio: > 10
Homo sapiens [3]
  Selectivity ratio: > 100
Homo sapiens [4]
  Selectivity ratio: > 100

## O=c1cc(C(F)(F)F)c2ccc(NCC(F)(F)F)cc2[nH]1
Homo sapiens [1]
  Selectivity ratio: > 100
Homo sapiens [2]
  Selectivity ratio: > 10
Homo sapiens [3]
  Selectivity ratio: > 100
Homo sapiens [4]
  Selectivity ratio: > 100

## CCNc1ccc2c(C(F)(F)F)cc(=O)[nH]c2c1
Homo sapiens [1]
  Selectivity ratio: > 100
Homo sapiens [2]
  Selectivity ratio: > 10
Homo sapiens [3]
  Selectivity ratio: > 100
Homo sapiens [4]
  Selectivity ratio: > 100

## O=c1cc(C(F)(F)F)c2ccc(NCC(F)(F)C(F)(F)F)cc2[nH]1
Homo sapiens [1]
  Selectivity ratio: > 100
Homo sapiens [2]
  Selectivity ratio: > 10
Homo sapiens [3]
  Selectivity ratio: > 100
Homo sapiens [4]
  Selectivity ratio: > 100

## CNc1ccc2c(C(F)(F)F)cc(=O)[nH]c2c1
Homo sapiens [1]
  Selectivity ratio: > 100
Homo sapiens [2]
  Selectivity ratio: > 10
Homo sapiens [3]
  Selectivity ratio: > 100
Homo sapiens [4]
  Selectivity ratio: > 100

## CCc1cc2c(C(F)(F)F)cc(=O)[nH]c2cc1N
Homo sapiens [1]
  Selectivity ratio: > 100
Homo sapiens [2]
  Selectivity ratio: > 10
Homo sapiens [3]
  Selectivity ratio: > 100
Homo sapiens [4]
  Selectivity ratio: > 100
